In patent US20240390315A1, “NUTRITIONAL COMPOSITIONS” (MITOCHOLINE Ltd, priority 2021, published 2024):

In the case of dicholine succinate [DiSu], the “absorption kinetic of choline and kinetic of transformation of choline to betaine” value (compared with choline chloride and choline bitartrate) was “better values” and the “AUC (0-6 h) of betaine concentrations” value (plasma, healthy adult males, single oral beverage supplying 550 mg choline, after overnight fasting, ranking among the three supplements) was “highest”.
